The values below come from patent EP2365091A1, “Method of screening for HtrA protease inhibitors useful for prophylaxis and therapy of a bacterial infection” (Paul-Ehrlich-Institut, priority 2010, dated 2011).

By UniProt entry, the sequences of proteins in these tests, tags left out. Residues count along the entry.
UniProt P09237, 95-267 limits assumed: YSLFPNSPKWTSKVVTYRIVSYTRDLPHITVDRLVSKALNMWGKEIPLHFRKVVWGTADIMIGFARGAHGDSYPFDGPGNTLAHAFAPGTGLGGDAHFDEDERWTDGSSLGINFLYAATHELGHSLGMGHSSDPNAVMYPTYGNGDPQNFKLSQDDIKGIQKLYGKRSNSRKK

pIC50: −log10 of the molar value.

The target in assay [1] is T1, MMP-7 (Homo sapiens, UniProt P09237). The assay can be described thus: In vitro cleavage of recombinant E-Cadherin by MMP-7 (Western blot). The class given is biochemical. The settings on record: 5 ng/µl MMP-7, 16 h, increasing concentrations (Fig. 8B). Here is the method: For in vitro cleavage studies, recombinant E-Cadherin, EGFR and JAM chimera, IgA or Casein, (R&D Systems, Wiesbaden, Germany) were incubated with HtrA^wt, HtrA^S205A or MMP7 in 50 mM HEPES (pH 7.4) at 37°C for 16 h. Where indicated, HHI or MMP inhibitor II were added. Reactions were stopped by boiling in Laemmli buffer, followed by 8% SDS-PAGE and Western blotting.

Assay [2] concerns the target T1, MMP-7. Particulars: stated in legend of Fig. 8B; 5 ng/µl MMP-7; cited from earlier work.

As to `COc1ccc(S(=O)(=O)N2CC(C)(C)CN(S(=O)(=O)c3ccc(OC)cc3)C2C(=O)NO)cc1`, in assay [1], the “degradation of recombinant E-Cadherin by recombinant MMP-7” value is “inhibited”. The pIC50 in assay [2] is 7.52.
